Assay results as given in publication PMC5761851, “Application of a phenotypic drug discovery strategy to identify biological and chemical starting points for inhibition of TSLP production in lung epithelial cells” (PLoS ONE, 2018).
Where two headings read alike, the source gives them in different places.

Columns and labels:
[1] = system: STAT6 (JAK1/3) reporter in RA-1 cells; settings: individual values
[2] = system: STAT6 (JAK1/3) reporter in RA-1 cells; experiment: cells

**Q.** With `CS(=O)(=O)N1CCN(c2ccc(Nc3ncc(C(N)=O)c(NC4CC4)n3)cc2)CC1` [compound 5] as the molecule, how does the IC50 [1] read?
**A.** 59 nM

**Q.** And the IC50 ([2]; read-out: Activity in reference cell based assay (IC50, μM) (95% CI) STAT6 (JAK1/3) reporter in RA-1 cells, geometric mean)?
**A.** 0.063 µM

**Q.** What about the IC50 ([2]; read-out: Cellular activity (IC50, mM) STAT6 reporter in RA-1 cells, individual values) of the same molecule?
**A.** 0.069 µM
